One experiment concerns the target AR (Rattus norvegicus, UniProt P15207).
For another experiment, the target named is T1, Cytosolic AR (Rattus norvegicus, UniProt P15207).
T1 construct: from tissue; host or cells: ventral prostate cytosol of Sprague-Dawley rats
T1 sequence (P15207 1-902): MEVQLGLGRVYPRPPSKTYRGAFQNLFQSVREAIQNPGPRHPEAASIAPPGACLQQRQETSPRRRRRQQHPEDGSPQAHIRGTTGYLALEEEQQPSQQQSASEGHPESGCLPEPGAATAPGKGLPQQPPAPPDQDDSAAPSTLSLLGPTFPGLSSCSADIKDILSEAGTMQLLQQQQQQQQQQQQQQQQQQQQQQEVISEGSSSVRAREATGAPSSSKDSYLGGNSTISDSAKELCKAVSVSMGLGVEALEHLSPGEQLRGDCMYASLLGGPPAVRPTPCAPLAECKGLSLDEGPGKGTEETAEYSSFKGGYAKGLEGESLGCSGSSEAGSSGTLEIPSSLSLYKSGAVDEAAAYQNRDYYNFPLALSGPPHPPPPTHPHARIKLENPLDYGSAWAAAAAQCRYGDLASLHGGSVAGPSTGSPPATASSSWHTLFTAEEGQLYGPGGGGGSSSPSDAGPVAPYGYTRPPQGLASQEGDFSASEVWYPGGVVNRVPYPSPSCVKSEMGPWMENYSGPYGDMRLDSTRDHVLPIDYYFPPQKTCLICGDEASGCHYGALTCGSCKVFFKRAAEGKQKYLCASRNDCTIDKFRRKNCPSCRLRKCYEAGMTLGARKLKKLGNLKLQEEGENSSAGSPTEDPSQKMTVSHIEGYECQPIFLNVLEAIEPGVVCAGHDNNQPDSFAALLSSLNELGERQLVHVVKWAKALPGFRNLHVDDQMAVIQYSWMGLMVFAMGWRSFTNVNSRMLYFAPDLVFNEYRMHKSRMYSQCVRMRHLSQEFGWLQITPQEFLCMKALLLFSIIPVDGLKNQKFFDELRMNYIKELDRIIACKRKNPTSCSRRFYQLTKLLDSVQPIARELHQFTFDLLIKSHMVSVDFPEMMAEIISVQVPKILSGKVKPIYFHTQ
Briefly: AR competitive binding assay (3H-MIB displacement, rat ventral prostate cytosol).

Where two headings read alike, the source gives them in different places.

The source of these data is patent US20090156614A1, “Selective androgen receptor modulators, analogs and derivatives thereof and uses thereof” (priority 2006, published 2009).

On to `CC(=O)Nc1ccc(OC[C@](C)(O)C(=O)Nc2ccc([N+](=O)[O-])c(C(F)(F)F)c2)cc1` [Compound S-4], for which, on AR, the “in vivo activity in the levator ani muscle, bone, and pituitary” value is “full agonists”; the “in vivo activity in the prostate” value is reported as “partial agonists”. Moreover, the Ki at Cytosolic AR (read-out: Affinity) was determined as 3.98 ± 0.7 nM. The Ki on Cytosolic AR (read-out: Ki) worked out at 4 ± 0.7 nM.

Turning to `C[C@](O)(COc1ccccc1)C(=O)Nc1ccc([N+](=O)[O-])c(C(F)(F)F)c1` [Compound S-9], the Ki on Cytosolic AR turned out to be 4.6 ± 0.26 nM.

Take `C[C@](O)(CS(=O)(=O)c1ccc(F)cc1)C(=O)Nc1ccc([N+](=O)[O-])c(C(F)(F)F)c1` [Compound X-3]: the Ki at Cytosolic AR (read-out: Affinity) came to 28 ± 10 nM.
